Key:
Huh-7 cells = test: Growth of Huh-7 cells over three days, MTT; format: cell-based; details: 20 ng/ml bortezomib
Protocol: (§1) After 16 h, cell viability was determined using MTT staining (Colo 205) or crystal violet staining (Huh-7) and data were normalized using bortezomib-treated cells as control (mean SEM, n=3). (B) 1×10^4 Colo205 cells per well were grown in 96-well plates using medium with 0.1% FCS. […] (C) 1×10^4 Huh-7 cells per well were grown in 96-well plates and treated with 20 ng/ml bortezomib or with a combination of bortezomib and 10 μM zVADfmk.

Colo205 cells = test: Growth of Colo205 cells over four days, MTT; format: cell-based; details: 4-day culture, 50 ng/ml EGF, 10 ng/ml bortezomib
Protocol: as §1

Cetuximab [reference compound] was tested, and the “effect on growth of cells” value (Huh-7 cells) was “did not substantially affect growth” and the “effect on growth of cells” value (Colo205 cells) was “did not substantially affect growth”.
